# Values quoted from earlier work, collected in PMC9099121, “Population pharmacokinetic and exposure‐response analyses from ALTA‐1L: Model‐based analyses supporting the brigatinib dose in ALK‐positive NSCLC” (Clinical and Translational Science, 2022).
# Tests used:
# [1] = test system: advanced ALK inhibitor-naive ALK+ NSCLC; design: method as in PMID 32780660; details: cited from earlier work
# [2] = test system: crizotinib-resistant ALK+ NSCLC; design: method as in PMID 29748847; details: time-independent measure; patients with crizotinib-resistant ALK+ NSCLC; cited from earlier work
SMILES,"2-year intracranial PFS rate ([1]; ALTA-1L, patients with any baseline brain metastases)","iORR ([1]; second ALTA-1L interim analysis, patients with measurable baseline brain metastases)",Exposure (median observed steady-state trough concentrations) as predictor of overall survival [2]
C[C@@H](Oc1cc(-c2cnn(C3CCNCC3)c2)cnc1N)c1c(Cl)ccc(F)c1Cl [crizotinib],15%,26%,
CCc1cc2c(cc1N1CCC(N3CCOCC3)CC1)C(C)(C)c1[nH]c3cc(C#N)ccc3c1C2=O [alectinib],,,not a significant predictor of overall survival
